From patent US20210386729A1, “METHODS FOR TREATING LIVER DISORDERS USING FXR AGONISTS” (NOVARTIS AG, priority 2016, published 2021)

Test: Safety and tolerability in healthy subjects
Format: in vivo, human
Source text: Elevated ALT resolved to within normal levels within 14 days and without intervention.

Which results are given for `O=C(O)c1cc(F)c2nc(N3C4CC[C@H]3CC(OCc3c(-c5ccccc5OC(F)(F)F)noc3C3CC3)C4)sc2c1` (some centres unmarked) [Compound A]?
overall safety and pharmacological activity (daily doses of 10 μg to 90 μg): safe and pharmacological active; safety (single dose studies up to 3000 μg): No safety concerns were identified
